In ChEMBL document CHEMBL4431311, “Endothelin-Receptor Antagonists beyond Pulmonary Arterial Hypertension: Cancer and Fibrosis” (J Med Chem, 2016):

Biological target: T1, Endothelin receptor type B (Homo sapiens, UniProt P24530)
T1 sequence (P24530 whole entry): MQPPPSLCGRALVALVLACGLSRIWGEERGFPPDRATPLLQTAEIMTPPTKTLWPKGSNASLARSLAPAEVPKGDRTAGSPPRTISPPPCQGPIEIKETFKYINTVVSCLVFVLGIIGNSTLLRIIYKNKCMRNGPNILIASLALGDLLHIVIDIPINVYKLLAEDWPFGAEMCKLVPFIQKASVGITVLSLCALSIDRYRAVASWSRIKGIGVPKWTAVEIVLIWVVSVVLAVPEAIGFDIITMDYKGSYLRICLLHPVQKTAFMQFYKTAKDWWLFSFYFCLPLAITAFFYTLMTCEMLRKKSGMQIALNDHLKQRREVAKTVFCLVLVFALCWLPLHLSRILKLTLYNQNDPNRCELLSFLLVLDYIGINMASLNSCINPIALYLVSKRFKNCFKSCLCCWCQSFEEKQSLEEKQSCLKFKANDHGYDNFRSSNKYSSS
Assay: Displacement of [125I]ET-1 from human ET-B receptor expressed in CHO cell membrane incubated for 2 hrs
Assay type: cell-based

Molecule `Cc1cc(C)cc(C(=O)N(C)[C@H](Cc2ccc(-c3ccccc3)cc2)C(=O)N[C@@H](Cc2c[nH]c3ccccc23)C(=O)O)c1` has an IC50 of 1.3 nM.
